Test system: rat spine (L4-L5)
Assay: Micro-computed tomography of rat fusion mass
Format: in vivo
Conditions: PA 1 with 100 ng BMP-2 (synchrotron μCT); BMP-2 alone 10 μg (μCT)

B1: BMP-2: bone morphogenetic protein (BMP)-2, growth factor important in bone formation (protein, UniProt P12643 283-396, looked up)
Bone morphogenetic protein 2: QAKHKQRKRLKSSCKRHPLYVDFSDVGWNDWIVAPPGYHAFYCHGECPFPLADHLNSTNHAIVQTLVNSVNSKIPKACCVPTELSAISMLYLDENEKVVLKNYQDMVVEGCGCR
- fusion morphology (μCT): multilevel fusions

— PMC5553550 (Nature nanotechnology, 2017)
